Results reported in US11292791B2 (priority 2017, dated 2022).

Biological target: BRD4 (Homo sapiens (Human), UniProt O60885)
Settings: read-out: BRD4 IC50 (μM gmean)

`COC(=O)N1c2ccc3c(nc(C(C)Cn4cc(Cl)cn4)n3C3CCNCC3)c2CC[C@@H]1C` (stereo partly shown) [Example 952] showed an IC50 of 1 to 1000 µM.
